Source: patent US20090105270A1, “Kinase inhibition and anticancer therapy” (priority 2007, published 2009)

Sequences of proteins named here, by UniProt entry; tags and fusion partners are left off. A change or cut given only in a name is not applied to a line headed by its entry.
UniProt Q00535, whole entry: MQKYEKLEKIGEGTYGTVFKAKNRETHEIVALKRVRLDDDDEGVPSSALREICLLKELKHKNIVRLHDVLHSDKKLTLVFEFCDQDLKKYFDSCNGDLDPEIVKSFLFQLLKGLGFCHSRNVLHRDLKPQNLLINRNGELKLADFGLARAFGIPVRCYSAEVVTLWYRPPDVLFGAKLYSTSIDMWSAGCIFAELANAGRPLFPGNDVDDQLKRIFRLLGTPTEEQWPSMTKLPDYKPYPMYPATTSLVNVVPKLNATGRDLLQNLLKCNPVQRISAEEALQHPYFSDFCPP
UniProt Q16539, whole entry T106M: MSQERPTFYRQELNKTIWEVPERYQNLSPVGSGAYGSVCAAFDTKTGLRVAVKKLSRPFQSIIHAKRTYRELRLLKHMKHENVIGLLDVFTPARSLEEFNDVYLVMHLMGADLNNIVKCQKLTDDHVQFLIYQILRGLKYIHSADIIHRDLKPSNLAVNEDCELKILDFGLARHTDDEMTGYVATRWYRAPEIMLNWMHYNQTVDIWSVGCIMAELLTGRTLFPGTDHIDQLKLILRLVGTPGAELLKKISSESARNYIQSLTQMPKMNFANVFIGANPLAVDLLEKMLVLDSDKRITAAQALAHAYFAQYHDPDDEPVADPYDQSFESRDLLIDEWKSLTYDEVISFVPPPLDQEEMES
UniProt Q99683: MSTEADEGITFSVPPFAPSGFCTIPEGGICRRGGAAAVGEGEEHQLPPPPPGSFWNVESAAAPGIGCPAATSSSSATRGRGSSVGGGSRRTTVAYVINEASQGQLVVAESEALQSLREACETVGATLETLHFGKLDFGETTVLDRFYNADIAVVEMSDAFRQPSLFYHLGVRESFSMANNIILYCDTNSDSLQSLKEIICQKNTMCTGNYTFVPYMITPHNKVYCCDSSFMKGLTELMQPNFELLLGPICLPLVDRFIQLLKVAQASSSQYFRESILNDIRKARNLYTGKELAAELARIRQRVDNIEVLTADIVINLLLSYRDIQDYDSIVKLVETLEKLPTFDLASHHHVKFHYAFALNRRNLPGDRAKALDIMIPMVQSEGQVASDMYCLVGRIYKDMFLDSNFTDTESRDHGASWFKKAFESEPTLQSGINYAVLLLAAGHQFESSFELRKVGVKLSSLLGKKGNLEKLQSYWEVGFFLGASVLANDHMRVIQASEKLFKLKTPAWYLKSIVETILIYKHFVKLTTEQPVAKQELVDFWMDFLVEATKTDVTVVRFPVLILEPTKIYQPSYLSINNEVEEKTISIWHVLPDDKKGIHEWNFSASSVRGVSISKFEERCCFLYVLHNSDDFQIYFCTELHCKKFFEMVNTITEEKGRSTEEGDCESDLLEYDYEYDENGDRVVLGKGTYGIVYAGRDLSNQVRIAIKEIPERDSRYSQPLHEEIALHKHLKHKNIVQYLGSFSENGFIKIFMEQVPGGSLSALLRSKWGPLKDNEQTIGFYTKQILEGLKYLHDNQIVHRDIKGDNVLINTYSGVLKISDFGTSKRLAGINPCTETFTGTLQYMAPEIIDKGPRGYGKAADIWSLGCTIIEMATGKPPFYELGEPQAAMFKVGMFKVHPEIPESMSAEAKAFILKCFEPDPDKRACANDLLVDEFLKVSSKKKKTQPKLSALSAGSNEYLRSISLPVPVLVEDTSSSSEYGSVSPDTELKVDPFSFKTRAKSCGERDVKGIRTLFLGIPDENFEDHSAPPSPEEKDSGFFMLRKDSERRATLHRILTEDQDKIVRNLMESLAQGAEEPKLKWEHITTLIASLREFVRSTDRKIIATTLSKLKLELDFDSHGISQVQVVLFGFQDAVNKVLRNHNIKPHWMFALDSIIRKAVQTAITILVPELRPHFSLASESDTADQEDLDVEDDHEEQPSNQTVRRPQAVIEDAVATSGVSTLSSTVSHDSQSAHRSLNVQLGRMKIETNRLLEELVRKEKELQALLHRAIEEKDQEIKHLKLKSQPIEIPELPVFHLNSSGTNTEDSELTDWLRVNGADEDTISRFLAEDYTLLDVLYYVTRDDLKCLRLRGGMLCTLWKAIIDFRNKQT
UniProt Q15831: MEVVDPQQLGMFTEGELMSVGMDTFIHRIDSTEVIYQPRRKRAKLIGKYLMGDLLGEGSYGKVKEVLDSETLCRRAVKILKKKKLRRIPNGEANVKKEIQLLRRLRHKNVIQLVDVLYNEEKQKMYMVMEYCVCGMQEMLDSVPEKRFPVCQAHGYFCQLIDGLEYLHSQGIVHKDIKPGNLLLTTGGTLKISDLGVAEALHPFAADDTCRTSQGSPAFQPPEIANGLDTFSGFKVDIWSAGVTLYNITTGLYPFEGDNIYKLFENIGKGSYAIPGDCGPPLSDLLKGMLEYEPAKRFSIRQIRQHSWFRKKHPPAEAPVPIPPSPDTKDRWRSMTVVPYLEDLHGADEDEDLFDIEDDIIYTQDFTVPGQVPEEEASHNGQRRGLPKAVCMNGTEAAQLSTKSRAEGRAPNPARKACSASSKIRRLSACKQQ
UniProt Q05655: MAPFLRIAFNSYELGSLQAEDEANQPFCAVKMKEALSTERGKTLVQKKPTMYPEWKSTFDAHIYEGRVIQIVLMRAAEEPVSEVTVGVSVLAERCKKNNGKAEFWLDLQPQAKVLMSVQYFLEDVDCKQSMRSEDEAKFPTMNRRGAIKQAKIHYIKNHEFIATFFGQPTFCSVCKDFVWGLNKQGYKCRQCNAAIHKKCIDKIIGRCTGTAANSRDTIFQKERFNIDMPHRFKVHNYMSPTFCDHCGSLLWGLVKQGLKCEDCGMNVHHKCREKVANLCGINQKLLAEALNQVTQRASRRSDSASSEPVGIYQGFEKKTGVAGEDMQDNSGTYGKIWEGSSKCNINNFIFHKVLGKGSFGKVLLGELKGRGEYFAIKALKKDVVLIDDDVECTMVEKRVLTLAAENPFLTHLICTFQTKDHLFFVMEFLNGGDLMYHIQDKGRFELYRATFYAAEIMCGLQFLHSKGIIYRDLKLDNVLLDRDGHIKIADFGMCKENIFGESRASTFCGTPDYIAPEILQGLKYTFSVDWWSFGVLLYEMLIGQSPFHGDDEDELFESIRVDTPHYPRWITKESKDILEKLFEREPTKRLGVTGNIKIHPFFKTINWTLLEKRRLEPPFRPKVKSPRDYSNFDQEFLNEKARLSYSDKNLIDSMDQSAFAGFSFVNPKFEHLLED
UniProt Q96SB4, whole entry: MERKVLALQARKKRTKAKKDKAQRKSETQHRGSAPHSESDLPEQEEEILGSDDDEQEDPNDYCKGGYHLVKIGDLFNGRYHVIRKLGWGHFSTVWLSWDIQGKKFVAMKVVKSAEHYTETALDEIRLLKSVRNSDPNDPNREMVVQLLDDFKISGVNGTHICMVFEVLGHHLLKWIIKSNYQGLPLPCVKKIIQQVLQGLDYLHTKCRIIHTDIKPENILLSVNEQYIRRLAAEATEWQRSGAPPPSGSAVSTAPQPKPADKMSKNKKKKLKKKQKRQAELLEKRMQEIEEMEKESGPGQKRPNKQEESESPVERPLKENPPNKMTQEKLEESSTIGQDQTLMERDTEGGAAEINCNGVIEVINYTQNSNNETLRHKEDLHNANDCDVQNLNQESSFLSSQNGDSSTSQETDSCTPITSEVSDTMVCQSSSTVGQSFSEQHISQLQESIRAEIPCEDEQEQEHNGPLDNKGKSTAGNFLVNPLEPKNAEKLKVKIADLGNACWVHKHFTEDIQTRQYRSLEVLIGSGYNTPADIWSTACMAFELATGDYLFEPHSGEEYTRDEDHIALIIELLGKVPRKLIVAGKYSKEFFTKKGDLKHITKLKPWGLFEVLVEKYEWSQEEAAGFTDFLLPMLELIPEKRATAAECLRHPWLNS

Experiments:
[1] = target: T1, CDK2/cyclinE(h) (Homo sapiens, UniProt P24941); assay: Upstate kinase activity inhibition assay CDK2/cyclinE(h); format: biochemical; conditions: 0.2 μM Compound E
T1 construct: purchased Upstate (KinaseProfiler service)

[2] = target: T2, CDK5/p25(h) (Homo sapiens, UniProt Q00535); assay: Upstate kinase activity inhibition assay CDK5/p25(h); format: biochemical; conditions: 40 min; read-out: percentage of enzyme activity that remains
T2 construct: purchased Upstate (KinaseProfiler service)

[3] = target: T3, EGFR(L861Q)(h) (Homo sapiens, UniProt P00533, L861Q); assay: Upstate kinase activity inhibition assay EGFR(L861Q)(h); format: biochemical; conditions: 0.2 μM Compound E
T3 construct: purchased Upstate (KinaseProfiler service)

[4] = target: SAPK2a(T106M)(h) (Homo sapiens, UniProt Q16539, T106M); conditions: 4 μM Compound E
[5] = target: ASK1(h) (Homo sapiens, UniProt Q99683); assay: biochemical; conditions: 40 min, read-out: percentage of enzyme activity that remains
[6] = target: CDK5/p35(h) (Homo sapiens, UniProt Q00535); assay: biochemical; conditions: 40 min, read-out: percentage of enzyme activity that remains
[7] = target: LKB1(h) (Homo sapiens, UniProt Q15831); assay: biochemical; conditions: 40 min, read-out: percentage of enzyme activity that remains
[8] = target: PKCδ(h) (Homo sapiens, UniProt Q05655); assay: biochemical; conditions: 40 min, read-out: percentage of enzyme activity that remains
[9] = target: SRPK1(h) (Homo sapiens, UniProt Q96SB4); assay: biochemical; conditions: 40 min, read-out: percentage of enzyme activity that remains
[10] = target: EGFR(h) (Homo sapiens, UniProt P00533); assay: Upstate kinase activity inhibition assay EGFR(h); conditions: 4 μM Compound E

Cc1cc(Nc2cc(N3CCN(C)CC3)nc(Sc3ccc(NC(=O)C4CC4)cc3)n2)n[nH]1 [Compound E, Cyclopropane carboxylic acid {4-[4-(4-methyl-piperazin-1-yl)-6-(5-methyl-2H-pyrazol-3-ylamino)-pyrimidin-2-ylsulphanyl]-phenyl}-amide]
percentage of enzyme activity that remains [1]: 108%
remaining activity at 0.2 µM [2]: 98%
remaining activity at 4 µM [2]: 102%
percentage of enzyme activity that remains [3]: 108%
percentage of enzyme activity that remains [4]: 103%
remaining activity at 4 µM [5]: 103%
remaining activity at 0.2 µM [6]: 102%
remaining activity at 4 µM [7]: 100%
remaining activity at 0.2 µM [8]: 91%
remaining activity at 0.2 µM [9]: 107%
percentage of enzyme activity that remains [10]: 98%
